Assay results as given in BindingDB's records for doi:10.1021/acs.biochem.5b01128 (University College London, 2016).

Biological target: Dual specificity tyrosine-phosphorylation-regulated kinase 1A (Homo sapiens, UniProt Q13627)
Experiment: Kinase Inhibition Assay
Description: For kinase inhibition assays, the final concentrations of the enzymes were 15, 14.5, 14.5, and 8.8 nM for CLK1, CLK2, CLK3, and Dyrk1A (Invitrogen, catalog no. PV3785), respectively. The compound concentrations ranged from 15503 to 121 nM and from 1550 to 12 nM. The RS domainderived peptide ([…]) (Anaspec, catalog no. 61722) for CLK1 and CLK3, Dyrktide ([…]) (Anaspec, catalog no. 62698) for Dyrk1A, and S6K peptide for CLK2 were used as substrates at a concentration of 5 μM.

IC50: 596 nM
SMILES: O=C1N=C(NCc2cccs2)S/C1=C/c1ccc2ncccc2c1 [NR9]
